The values that follow are results of earlier work, collected in patent publication US10196361B2, “Sodium salt of uric acid transporter inhibitor and crystalline form thereof” (Jiangsu Hengrui Medicine Co., Ltd., priority 2015, dated 2019).

Sequences of proteins named here, by UniProt entry; tags and fusion partners are left off. A change or cut given only in a name is not applied to a line headed by its entry.
UniProt Q96S37: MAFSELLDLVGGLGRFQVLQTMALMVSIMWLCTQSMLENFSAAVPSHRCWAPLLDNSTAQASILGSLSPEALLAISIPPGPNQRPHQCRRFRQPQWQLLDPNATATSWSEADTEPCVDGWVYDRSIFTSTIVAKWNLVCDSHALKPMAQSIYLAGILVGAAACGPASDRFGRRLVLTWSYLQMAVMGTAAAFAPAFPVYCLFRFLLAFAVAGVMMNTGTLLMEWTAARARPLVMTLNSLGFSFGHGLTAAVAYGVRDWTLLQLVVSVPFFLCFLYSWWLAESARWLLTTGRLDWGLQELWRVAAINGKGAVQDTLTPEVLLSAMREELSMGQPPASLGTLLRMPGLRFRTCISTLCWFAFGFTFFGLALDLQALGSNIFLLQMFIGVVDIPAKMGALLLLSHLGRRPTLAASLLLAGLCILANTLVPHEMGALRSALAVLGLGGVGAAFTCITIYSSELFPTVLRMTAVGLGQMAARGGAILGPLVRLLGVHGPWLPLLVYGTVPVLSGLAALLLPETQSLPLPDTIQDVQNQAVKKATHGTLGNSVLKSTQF

For orientation: IC50 means the concentration that gives 50% inhibition.

In this data set the target is uric acid transporter URAT1 (Homo sapiens, UniProt Q96S37). The settings on record: read-out: IC50 against uric acid transporter URAT1; cited from earlier work.

Consider `O=C(O)CSc1nnc(Br)n1-c1ccc(C2CC2)c2ccccc12` [RDEA-594], for which the IC50 was approximately 7 µM.
